Assay results: patent EP0468448B1, “Analogs of hirudin having antiplatelet activity” (MERRELL PHARMACEUTICALS INC., priority 1990, dated 1992)

These compounds were tested against thrombin (Bos taurus, UniProt P00735) (assay: biochemical).
Parameters: species or system Bovine

Structure (SMILES)	IC50
CC[C@H](C)[C@H](NC(=O)[C@@H]1CCCN1C(=O)[C@H](CCC(=O)O)NC(=O)[C@H](Cc1c[nH]c2ccccc12)NC(=O)[C@H](CC(=O)O)NC(=O)c1ccc(CNC(=N)N)cc1)C(=O)N1CCC[C@H]1C(=O)N[C@@H](CCC(=O)O)C(=O)N[C@@H](CCC(=O)O)C(=O)N[C@@H](C)C(=O)N[C@@H](CC1CCCCC1)C(=O)N[C@H](CCC(=O)O)C(=O)O [Example 7]	1300 nM
CC[C@H](C)[C@H](NC(=O)[C@@H]1CCCN1C(=O)[C@H](CCC(=O)O)NC(=O)[C@H](Cc1ccc(O)cc1)NC(=O)CCC(=O)O)C(=O)N1CCC[C@H]1C(=O)N[C@@H](CCCNC(=N)N)C(=O)NCC(=O)N[C@@H](CC(=O)O)C(=O)N[C@@H](Cc1ccccc1)C(=O)N[C@H](CCC(=O)O)C(=O)O [Example 4]	15000 nM
CC[C@H](C)[C@H](NC(=O)[C@@H]1CCCN1C(=O)[C@H](CCC(=O)O)NC(=O)[C@H](Cc1c[nH]c2ccccc12)NC(=O)[C@H](CC(=O)O)NC(=O)c1ccc(CN)cc1)C(=O)N1CCC[C@H]1C(=O)N[C@@H](CCC(=O)O)C(=O)N[C@@H](CCC(=O)O)C(=O)N[C@@H](C)C(=O)N[C@@H](CC1CCCCC1)C(=O)N[C@H](CCC(=O)O)C(=O)O [Example 6]	2100 nM
